Test results as given in publication PMC8507859.

Biological target: recombinant catalytic domain of human MMP-14 (amino acids 89-265) (human) (UniProt P50281)

Substance | decrease of MMP-14 activity (SensoLyte 520 MMP-14 assay, 5-FAM/QXL520 FRET peptide substrate; catalytic domain pre-incubated overnight at 37 °C with 100 μM peptide) [%]
lumcorin (peptide) | 92
L9Mc (peptide) | 33
